From patent EP2924037A1, “QUINAZOLINE DERIVATE AND USE THEREOF AS APOPTOSIS INHIBITOR” (Linx Pharmaceutical Co., Ltd., priority 2012, dated 2013)

Key:
[1] = biological target: T1, pgk1 (Mus musculus, UniProt P09411); assay: Activity assay of pgk1 (GAPDH-coupled, absorbance at 340 nm); format: biochemical; design: His; made in house; host or cells: E. coli
T1 sequence (P09411 1-417): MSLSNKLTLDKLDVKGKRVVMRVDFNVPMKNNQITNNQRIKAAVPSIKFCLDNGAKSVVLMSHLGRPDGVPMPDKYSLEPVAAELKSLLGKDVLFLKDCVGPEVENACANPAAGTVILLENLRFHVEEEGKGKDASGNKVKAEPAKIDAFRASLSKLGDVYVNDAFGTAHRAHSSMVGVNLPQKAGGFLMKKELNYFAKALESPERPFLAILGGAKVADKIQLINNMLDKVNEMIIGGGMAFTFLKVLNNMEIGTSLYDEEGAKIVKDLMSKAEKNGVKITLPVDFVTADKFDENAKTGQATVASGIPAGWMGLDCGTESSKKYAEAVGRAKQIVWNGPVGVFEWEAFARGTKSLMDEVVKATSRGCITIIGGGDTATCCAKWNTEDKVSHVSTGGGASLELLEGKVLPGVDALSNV
Procedure: The recombinant mouse pgk1 protein (His-pgk1) was expressed in the E. Coli. The protein was purified by a Nickel column. The proteins were diluted to 0.15 unit /mL. Then, different concentrations of terazosin were added to determine the pgk1 activity.
According to the components of Colorimetric GAPDH Assay Kit (ScienCells), the reaction solution was prepared with solutions of GAPDH, HEPES, and MgSO4. A predetermined concentration of the compound of Formula I was added to the reaction solution (30 mM Hepes, 3 mM ATP, 0.22 mM NADH, 10 mM MgSO4, 10 mM 3-PGA, 3-4 U/ml GAPDH, pH 7.5). Absorbance was measured at 25 °C with a spectroscope (340 nm). Relative activity of pgk1 was calculated based on the changes of absorbance value within 1-10 minutes. The activity has a positive correlation with the changes of absorbance value. The absorbance of the same compound at 340 nm was subtracted in the test group.

[2] = biological target: T1, pgk1; settings: mouse pgk1 expressed and purified from bacteria, terazosin agarose beads

Compound: COc1cc2nc(N3CCN(C(=O)C4CCCO4)CC3)nc(N)c2cc1OC (stereo not drawn) [Co.33, (4-(4-amino-6,7-dimethoxyquinazolin-2-yl)piperazin-1-yl)(tetrahydrofuran-2-yl)methanone]
- effect on the enzymatic activity of pgk1 ([1]; 0.4µM terazosin, in vitro): reduced the extent to which the enzymatic activity of pgk1 can be increased
- fold induction at 0.05 µM ([1]; read-out: increase of the enzymatic activity of pgk1): ~3
- direct binding to pgk1 [2]: can directly bind pgk1 in vitro
